Results as given in patent publication US12378248B2 (The United States of America, as represented by the …, priority 2018, dated 2025).

Sequences of proteins named here, by UniProt entry; tags and fusion partners are left off.
UniProt Q60612, whole entry: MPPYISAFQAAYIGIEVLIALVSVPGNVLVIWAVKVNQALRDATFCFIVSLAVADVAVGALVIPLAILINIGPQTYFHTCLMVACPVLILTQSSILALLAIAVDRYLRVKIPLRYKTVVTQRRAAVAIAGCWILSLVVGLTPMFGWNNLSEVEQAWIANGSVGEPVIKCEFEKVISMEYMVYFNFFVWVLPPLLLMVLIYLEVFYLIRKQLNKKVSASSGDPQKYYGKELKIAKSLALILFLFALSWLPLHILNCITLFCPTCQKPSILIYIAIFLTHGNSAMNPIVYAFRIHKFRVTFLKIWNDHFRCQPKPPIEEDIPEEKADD
UniProt P28647, whole entry: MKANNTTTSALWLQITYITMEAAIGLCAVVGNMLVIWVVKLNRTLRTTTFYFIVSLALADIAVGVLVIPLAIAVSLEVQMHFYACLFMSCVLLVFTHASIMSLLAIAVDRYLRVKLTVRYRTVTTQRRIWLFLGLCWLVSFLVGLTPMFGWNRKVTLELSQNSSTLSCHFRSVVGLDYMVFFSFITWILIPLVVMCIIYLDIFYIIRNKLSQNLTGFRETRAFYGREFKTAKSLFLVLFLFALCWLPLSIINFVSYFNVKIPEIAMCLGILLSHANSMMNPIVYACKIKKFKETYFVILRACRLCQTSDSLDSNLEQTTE
UniProt Q60613, whole entry: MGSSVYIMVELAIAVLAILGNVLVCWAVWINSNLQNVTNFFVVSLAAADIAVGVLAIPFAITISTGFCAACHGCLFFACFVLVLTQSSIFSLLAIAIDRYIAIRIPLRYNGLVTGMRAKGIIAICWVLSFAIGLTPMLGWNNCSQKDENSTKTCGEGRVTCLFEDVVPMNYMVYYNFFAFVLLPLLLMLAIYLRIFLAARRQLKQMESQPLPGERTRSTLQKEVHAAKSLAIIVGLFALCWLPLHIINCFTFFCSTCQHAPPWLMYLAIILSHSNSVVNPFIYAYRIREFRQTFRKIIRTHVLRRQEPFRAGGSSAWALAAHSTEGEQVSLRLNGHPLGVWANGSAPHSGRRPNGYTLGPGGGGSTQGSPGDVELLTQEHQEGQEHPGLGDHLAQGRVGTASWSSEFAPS

How the values were obtained:
[1] = target: mA1AR (Mus musculus, UniProt Q60612); assay: Guanine nucleotide ([35S]GTPγS) binding assay; assay type: biochemical
Method: cLogP was calculated using ChemDraw Professional, v. 16.0. Binding selectivity for mA1Ar is expressed in terms of fold, compared to mA3AR (Data from Table 1).

[2] = target: rA3AR (Rattus norvegicus, UniProt P28647); assay: Adenosine receptor binding, rA3AR; conditions: (r), read-out: A3AR % inhibition or Ki
[3] = target: mA2AAR (Mus musculus, UniProt Q60613); assay: Adenosine receptor binding, mA2AAR
[4] = target: TSPO (translocator protein) (UniProt P30536); assay: Off-target interaction determined by the PDSP; assay type: binding, human; conditions: read-out: Off-target, receptor (h, unless noted) (Ki, μM): TSPO

Work on OC[C@H]1O[C@@H](n2cnc3c(NC(C4CCC4)C4CCC4)ncnc32)[C@H](O)C1O (stereo in doubt) [Compound 9, (2R,3R,4R,5R)-2-(6-((Dicyclobutylmethyl)amino)-9H-purin-9-yl)-5-(hydroxymethyl)tetrahydrofuran-3,4-diol] yielded an Emax at 10 µM [1] of 101 ± 7%.
CNC(=O)[C@H]1O[C@@H](n2cnc3c(N)ncnc32)[C@H](O)[C@@H]1O [Compound 15, reference compound] was tested, and the Ki [2] was 63 nM.
For O[C@@H]1[C@H](O)[C@@H]2C[C@@H]2[C@H]1n1cnc2c(NC(C3CC3)C3CC3)nc(Cl)nc21 [Compound 7, reference compound], the inhibition at 10 µM ([3]; read-out: A2AAR % inhibition (converted)) was 34%.
With O[C@@H]1[C@H](O)[C@@H](CCl)O[C@H]1n1cnc2c(NC3CC4CCC3C4)ncnc21 (some centres unmarked) [Compound 4, reference compound] the Ki ([3]; (m), values without % sign (Ki), read-out: A2AAR % inhibition) was 3990 nM.
For CCOC(=O)[C@@]12C[C@@H]1[C@@H](n1cnc3c(NC(C4CC4)C4CC4)nc(Cl)nc31)[C@H](O)[C@@H]2O [Compound 32], the Ki [4] was 2.5 µM.
